Experimental data taken from paper PMC3540129.

Target: Kv7.2 (KCNQ2) B-D construct (Q2BD), tag removed (human) (UniProt O43526)
Assay: SEC

Substance: Kv7.2 (KCNQ2) B-D construct (Q2BD), tag removed (from UniProt O43526 1-872) (domain or fragment)
- stoichiometry N: 4
